Assay: Solubility of water in solvent, solvent in water; solubility in water
Assay type: physicochemical
Details: in words

SMILES: CCCCOC(=O)CC(O)(CC(=O)OCCCC)C(=O)OCCCC
- Solubility in water: water insoluble
